Source: US4551538A, “Phenylpyrazolidine acetic acid derivatives” (American Home Products Corporation, priority 1984, dated 1985)

Experiments:
[1] = tested on: AA-induced mouse ear edema; experiment: arachidonic acid (AA)-induced murine ear edema test; format: in vivo, mouse (Swiss Webster); conditions: topical
Description: (§1) The ability of the compounds of the invention to inhibit the lipoxygenase and cyclooxygenase pathways of arachidonic acid is examined in the in vivo arachidonic acid (AA)-/12-O-tetradecanoylphorbol acetate (TPA)-induced murine ear edema test.
(§2) According to this test, Swiss Webster female mice (Buckshire), approximately 8 weeks old, are placed into plastic boxes in groups of six. Eight groups of mice receive AA topically on the right ear, and another 8 groups receive TPA topically on the right ear. AA and TPA are dissolved in acetone at concentrations of 100 mg/ml and 100 μg/ml respectively. The phlogistics are applied to the right ear by the means of an automatic pipet. Volumes of 10 μl are applied to the inner and outer surfaces of the ear. Each mouse receives either 2 mg/ear AA or 4 μg/ear TPA. The left ear (control) receives acetone delivered in the same manner. […]
(§3) Measurements are taken with Oditest calipers, 0-10 mm with 0.01 graduations. The right and left ears are measured after 1 hour AA-induced inflammation and 4 hours after TPA-induced inflammation.
(§4) The difference between right and left ear thickness is calculated and the significance is determined by a one way analysis of variance with Dunnett's comparisons to control (P=0.05). Drug effects are expressed as a percent change from control values: [formula]

[2] = tested on: TPA-induced mouse ear edema; experiment: 12-O-tetradecanoylphorbol acetate (TPA)-induced murine ear edema test; format: in vivo, mouse (Swiss Webster); conditions: topical
Description: as §1, §2, §3, §4

[3] = tested on: leucocyte accumulation in inflammatory exudates; conditions: background statement; cited from earlier work

NC1=NN(c2cccc(C(F)(F)F)c2)CC1 [BW755C, 3-amino-1-[m-(trifluoromethyl)phenyl]-2-pyrazoline, reference compound]
ED50, AA ear edema [1]: 2.8 mg/ear
ED50, TPA ear edema [2]: 0.2 mg/ear
effect on edema, PG synthesis and leucocyte accumulation [3]: reduces edema, PG synthesis and leucocyte accumulation
effect on leucocyte numbers in inflammatory exudates [3]: reduces both PMN's and mononuclear leucocyte numbers in inflammatory exudates
